Measured values from ChEMBL document CHEMBL1137232 (J Med Chem, 2004).

Protein sequences, listed by entry. Tags and fused reporters are not part of them.
UniProt Q9WTR4, whole entry: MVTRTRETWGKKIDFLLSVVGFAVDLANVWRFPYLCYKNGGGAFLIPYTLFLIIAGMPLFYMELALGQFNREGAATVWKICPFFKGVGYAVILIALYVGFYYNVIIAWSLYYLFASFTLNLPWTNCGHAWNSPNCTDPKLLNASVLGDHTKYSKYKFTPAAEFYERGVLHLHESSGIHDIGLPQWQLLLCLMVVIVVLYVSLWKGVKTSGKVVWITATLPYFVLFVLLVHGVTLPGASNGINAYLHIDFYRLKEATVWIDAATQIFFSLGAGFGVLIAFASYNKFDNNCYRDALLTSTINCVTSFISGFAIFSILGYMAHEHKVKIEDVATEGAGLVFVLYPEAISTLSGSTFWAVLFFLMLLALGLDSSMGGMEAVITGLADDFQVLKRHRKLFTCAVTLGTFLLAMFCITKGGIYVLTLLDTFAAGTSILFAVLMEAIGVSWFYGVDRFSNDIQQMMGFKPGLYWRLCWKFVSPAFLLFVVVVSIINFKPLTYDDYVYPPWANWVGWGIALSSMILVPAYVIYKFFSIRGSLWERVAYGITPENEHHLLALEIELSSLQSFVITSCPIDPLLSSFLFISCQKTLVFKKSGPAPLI

Target: Norepinephrine transporter (Rattus norvegicus, UniProt Q9WTR4)
Assay: Inhibition of high affinity uptake by the norepinephrine transporter from rat synaptosomal nerve endings by using [3H]NE as radioligand

CN1CCC(c2ccc(Cl)cc2)C(C[S+]([O-])CC(N)=O)C1 (stereo unspecified)
Ki: 178 nM
